Results from PubChem BioAssay AID2599 (Sanford-Burnham Center for Chemical Genomics, 2010).
The entries are a selection whose mix differs from that of the whole data set. The source made the active and inactive calls.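 Rule for the calls: active = inhibition above about 50% at the single tested dose (limit read from the data); inactive = the rest.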

Amino acid sequences for entries named in this document (tags omitted). Residues count along the entry.
UniProt Q9GZR1, 628-1112 limits assumed: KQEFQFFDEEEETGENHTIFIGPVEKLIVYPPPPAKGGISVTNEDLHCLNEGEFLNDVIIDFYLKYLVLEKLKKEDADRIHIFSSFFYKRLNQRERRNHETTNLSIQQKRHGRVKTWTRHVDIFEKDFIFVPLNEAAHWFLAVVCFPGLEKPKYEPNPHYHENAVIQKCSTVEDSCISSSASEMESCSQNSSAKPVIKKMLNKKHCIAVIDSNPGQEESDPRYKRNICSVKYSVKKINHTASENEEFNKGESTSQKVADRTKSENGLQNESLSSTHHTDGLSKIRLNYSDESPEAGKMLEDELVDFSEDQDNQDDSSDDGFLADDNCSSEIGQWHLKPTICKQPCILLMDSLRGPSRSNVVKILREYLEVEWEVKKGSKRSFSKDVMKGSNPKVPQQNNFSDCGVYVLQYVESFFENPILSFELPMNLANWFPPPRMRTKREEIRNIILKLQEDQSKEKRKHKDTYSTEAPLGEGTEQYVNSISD

molecular target: Sentrin-specific protease 6 (Homo sapiens) (UniProt Q9GZR1); experiment: SENP6 protease inhibitors, primary screen, biochemical, luminescence, uHTS (AID 2599); conditions: Recombinant SENP6 catalytic domain, aminoluciferin luminescence; at 10 µM; hits give high values;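 note: plate controls were DMSO wells with enzyme for no effect and DMSO wells lacking enzyme for full effect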

Row | Compound | inhibition
1 | CCC(=O)N(c1ccccc1)C1(COC)CCN(CCn2nnn(CC)c2=O)CC1 | inactive: -8.56%
2 | CCC(=O)N(c1ccccc1)C1(COC)CCN(CCc2cccs2)CC1 | inactive: -10.9%
